Measurements taken from ChEMBL document CHEMBL1148324 (J Med Chem, 2004).

Assay: Selectivity expressed as the ratio of pEC50 (SLPD) and pEC50 (FSLPD)
Assay type: functional

In the case of CCC(C)(C)/N=C(\NC#N)Nc1cccnc1, the Selectivity is reported as 3.9.
